Assay: Solubility of crystalline salts in water, aqueous vehicles and biorelevant media
Format: physicochemical
Conditions: 0.9% NaCl solution, FaSSIF and FeSSIF

solubility: surprisingly high
Substance: 14-O-{[(1R,2R,4R)-4-Amino-2-hydroxy-cyclohexyl-sulfanyl]-acetyl}-mutilin acetate
